Data: PMC11345844, “Non-Covalent Inhibitors of SARS-CoV-2 Papain-Like Protease (PLpro): In Vitro and In Vivo Antiviral Activity” (Journal of Medicinal Chemistry, 2024)
Counter-ions that a name gives are not always drawn. Like-named read-outs stand apart in the source and are kept apart here.

Tests used:
in vivo = conditions: female, C57B/6, mouse; for concentration at […] / concentration at 0.5 h / concentration at 1 min: mean; for concentration at […]: 5 mg/kg i.v. bid for 0.5 days, […] after final injection (Table S1); for concentration at 0.5 h: 10 mg/kg (s.c. qd) for 1 days, 0.5 h (Table S5); for concentration at 1 min: 10 mg/kg i.v. qd for 2 days, 1 min after final injection (Table S3)
SARS-CoV-2 PLpro [1] = target: T1, SARS-CoV-2 PLpro (Severe acute respiratory syndrome coronavirus 2, UniProt P0DTD1); conditions: for IC50: read-out: Enzyme inhibition IC50
SARS-CoV-2 PLpro [2] = target: T1, SARS-CoV-2 PLpro; experiment: biochemical

| SMILES | IC50 (SARS-CoV-2 PLpro [1]) | IC50 (SARS-CoV-2 PLpro [2]) | further results |
| --- | --- | --- | --- |
| Cc1ccc(NC2CNC2)cc1C(=O)N[C@H](C)c1cccc(-c2ccc(CNC3CCCC3)s2)c1 [10 (HCl salt)] |  |  | Kp at […] (in vivo; 5 mg/kg): 5.36; concentration at […] (in vivo; 5 mg/kg, Lung concentration): 10.2 µg/mL; concentration at […] (in vivo; 5 mg/kg, Plasma concentration): 1.91 µg/mL; Kp at 1 min (in vivo; 10 mg/kg): 3.26; concentration at 0.5 h (in vivo; 10 mg/kg, Lung concentration): 90 µg/mL; concentration at 1 min (in vivo; 10 mg/kg, Lung concentration): 36 µg/mL; concentration at 0.5 h (in vivo; 10 mg/kg, Plasma concentration): 7.03 µg/mL; concentration at 1 min (in vivo; 10 mg/kg, Plasma concentration): 11.1 µg/mL; Kp at 0.5 h (in vivo; sc, 100 mg/kg): 12.9 |
| Cc1ccc(NC2CNC2)cc1C(=O)N[C@H](C)c1cccc(-c2ccc(CNC3CCCC3)s2)c1 [Compound 10] |  |  | plasma AUCinf (i.v. mouse, 2 mg/kg): 305 ± 46 ng·h/mL; plasma AUCinf (s.c. mouse, 50 mg/kg): 15,067 ± 1298 h × ng/mL |
| Cc1ccc(NC2CNC2)cc1C(=O)N[C@H](C)c1cccc(-c2cc(C)c(CNC3CCCC3)s2)c1 [Compound 16, (R)-5-(Azetidin-3-ylamino)-N-(1-(3-(5-((cyclopentylamino)methyl)-4-methylthiophen-2-yl)phenyl)ethyl)-2 Methylbenzamide] | 0.65 µM | ~0.7 µM |  |
| Cc1ccc(NC2CNC2)cc1C(=O)N[C@H](C)c1cccc(-c2ccc(CN)s2)c1 [Compound 21, (R)-N-(1-(3-(5-(Aminomethyl)thiophen-2-yl)phenyl)ethyl)-5-(azetidin-3-ylamino)-2-methylbenzamide] |  | 1.56 µM |  |
| Cc1ccc(NC2CNC2)cc1C(=O)N[C@H](C)c1cccc(-c2ccc(C#N)s2)c1 [Compound 23, (R)-5-(Azetidin-3-ylamino)-N-(1-(3-(5-cyanothiophen-2-yl)phenyl)ethyl)-2-methylbenzamide] | 5.53 µM | 4 to 6 µM |  |
| Cc1ccc(NC2CNC2)cc1C(=O)N[C@H](C)c1cccc(-c2ccc(CN[C@H]3CC[C@@H](C(=O)O)C3)s2)c1 [Compound 39, (1R,3S)-3-(((5-(3-((R)-1-(5-(Azetidin-3-ylamino)-2-methylbenzamido)ethyl)phenyl)thiophen-2-yl)methyl)amino)cyclopentane-1-carboxylic Acid] | 0.32 µM | < 0.5 µM |  |
| Cc1ccc(OC2CCNCC2)cc1C(=O)N[C@H](C)c1cccc(-c2ccc(CNC3CCCC3)s2)c1 [Compound 44, (R)-N-(1-(3-(5-((Cyclopentylamino)methyl)thiophen-2-yl)phenyl)ethyl)-2-methyl-5-(piperidin-4-yloxy)benzamide] | 0.75 µM | ~0.7 µM |  |
| Cc1ccc(OC2CNC2)cc1C(=O)N[C@H](C)c1cccc(-c2ccc(CN[C@H]3CC[C@@H](C(=O)O)C3)s2)c1 [Compound 46, (1R,3S)-3-(((5-(3-((R)-1-(5-(Azetidin-3-yloxy)-2-methylbenzamido)ethyl)phenyl)thiophen-2-yl)methyl)amino)cyclopentane-1-carboxylic Acid] | 0.36 µM | < 0.5 µM |  |
| Cc1ccc(NC2CNC2)cc1C(=O)N[C@H](C)c1cccc(-c2ccc(CN[C@H]3CC[C@@H](OC(=O)[C@@H](N)C(C)C)C3)s2)c1 [Compound 60, (1R,3S)-3-(((5-(3-((R)-1-(5-(Azetidin-3-ylamino)-2-methylbenzamido)ethyl)phenyl)thiophen-2-yl)methyl)amino)cyclopentyl L-valinate] | 0.56 µM | < 0.6 µM |  |
| Cc1ccc(NC2CNC2)cc1C(=O)N[C@H](C)c1cccc(-c2ccc(CN[C@H]3CC[C@@H](OC(=O)[C@@H](NC(=O)[C@@H](N)C(C)C)C(C)C)C3)s2)c1 [Compound 61, (1R,3S)-3-(((5-(3-((R)-1-(5-(Azetidin-3-ylamino)-2-methylbenzamido)ethyl)phenyl)thiophen-2-yl)methyl)amino)cyclopentyl L-valyl-L-valinate] | 0.5 µM | < 0.6 µM |  |
| Cc1ccc(OC2CNC2)cc1C(=O)N[C@H](C)c1cccc(-c2ccc(CN[C@H]3CC[C@@H](C(=O)OC[C@H]4O[C@@H](n5ccc(N)nc5=O)[C@H](O)[C@@H]4O)C3)s2)c1 [Compound 63, ((2R,3S,4R,5R)-5-(4-Amino-2-oxopyrimidin-1(2H)-yl)-3,4-dihydroxytetrahydrofuran-2-yl)methyl (1R,3S)-3-(((5-(3-((R)-1-(5-(azetidin-3-yloxy)-2-methylbenzamido)ethyl)phenyl) Thiophen-2-yl)methyl)amino)cyclopentane-1-carboxylate] | 0.47 µM |  | potency for PLpro inhibition (SARS-CoV-2 PLpro [1]): submicromolar potency |
| Cc1ccc(NC2CNC2)cc1C(=O)N[C@H](C)c1cccc(-c2ccc(CN[C@H]3CC[C@@H](C(=O)OC[C@H]4O[C@@H](n5ccc(NO)nc5=O)[C@H](O)[C@@H]4O)C3)s2)c1 [Compound 64, ((3S,4R,5R)-3,4-Dihydroxy-5-(4-(hydroxyamino)-2-oxopyrimidin-1(2H)-yl)tetrahydrofuran-2-yl)methyl (1R,3S)-3-(((5-(3-((R)-1-(5-(azetidin-3-ylamino)-2-methylbenzamido)ethyl)phenyl)thiophen-2-yl)methyl)amino)cyclopentane-1-carboxylate] | 0.62 µM |  | potency for PLpro inhibition (SARS-CoV-2 PLpro [1]): submicromolar potency |
